Measured affinities in a library of Ab-14 light chain variants

Antigen: PDVDLGDISGINAS, a 14-residue peptide of the SARS-CoV-2 spike HR2 region.

Each scFv is VH, three GGGGS repeats, VL, as in the parent Ab-14, and differs from it in the CDRs of the light chain only.
VH: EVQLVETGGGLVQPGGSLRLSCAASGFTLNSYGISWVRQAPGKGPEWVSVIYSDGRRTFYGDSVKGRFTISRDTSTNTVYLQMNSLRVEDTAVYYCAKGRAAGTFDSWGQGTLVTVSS
VL: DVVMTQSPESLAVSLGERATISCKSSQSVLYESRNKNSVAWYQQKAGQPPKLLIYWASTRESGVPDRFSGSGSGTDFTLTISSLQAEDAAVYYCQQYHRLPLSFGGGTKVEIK

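The starting antibody came from a phage panning campaign against this peptide. In library AAYL50, one, two or three CDR residues were substituted; doubles and triples were drawn at random. AlphaSeq pools MATa yeast showing the antibodies with MATalpha yeast showing the peptide. After mating in shaken culture at 30 °C for 16 h, diploids were selected and their barcode pairs sequenced. Each replicate has its own calibration line, from reference interactions of the BCL2 family. The assay was run in three technical replicates.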

The parent's light chain CDRs are KSSQSVLYESRNKNSVA, WASTRES, QQYHRLPLS; each variant's own CDRs replace them letter for letter. All variants listed here change E61 of the VL, counted from its first residue. The Kd shown is the geometric mean over detected replicates; a lower Kd is a better binder. A pair that was not seen in any replicate is written "nd"; this usually means weak binding, but a binder can also be missed.

For KRSQSVLYESRNKNSVA | WASTRLS | QFYHRLPLS, the assay gave 1.8 µM (3 of 3 replicates). For KSMQSVLYESRNKNSVA | WASYRQS | QQYHRLPLS, the assay gave nd (0 of 3 replicates). For KSSQSVLYESRNKNSVA | WASTVNS | QQYHRLPNS, the assay gave 410 nM (3 of 3 replicates). For ESSQSVLYESRNKNSVA | WASTRAS | IQYHRLPLS, the assay gave 15 µM (1 of 3 replicates). With KPSQSVLYESRNKNSVA | WASTRWS | QQIHRLPLS the result was 1.3 µM (1 of 3 replicates). The variant KSSQSVLYQSRNKNSVA | WASTRHS | QQYHRAPLS gave nd (0 of 3 replicates). For KSSQSVLYESRNKNWVA | WASERVS | QQYHRLPLS, the assay gave 170 nM (3 of 3 replicates). The variant KSSQSVLQESRSKNSVA | WASTRDS | QQYHRLPLS gave 140 nM (3 of 3 replicates). With KSVQSVLYESRNKNSVV | WASTRMS | QQYHRLPLS the result was nd (0 of 3 replicates).

The variant KSSQSVFYESRNTNSVA | WASTRAS | QQYHRLPLS showed 1.8 nM (3 of 3 replicates). The variant KSSQSVLYESRNKNTVA | WASTRPS | QQYHRLPLS showed 4.5 µM (2 of 3 replicates). The variant KSSQSVLYESRNKNSVA | WSSTRWS | QQYHRLPLS showed 210 nM (3 of 3 replicates). The variant KSSQSVLYESRNKLSLA | WASTRCS | QQYHRLPLS showed 1.4 µM (2 of 3 replicates). The variant KSSQSVLYESQNKNIVA | WASTRQS | QQYHRLPLS showed nd (0 of 3 replicates). For KSSQSVLYEPRNKNSVA | WASTRNS | QQYHRLPKS, the assay gave 62 nM (3 of 3 replicates). The variant KSSQSVLYESRNKNSVA | WASTCVS | QQYHRLYLS gave 4.9 µM (1 of 3 replicates). The variant KSSNSVLAESRNKNSVA | WASTRQS | QQYHRLPLS gave 85 µM (2 of 3 replicates). For KSSQSVLYESRNKNSVA | WASTRTS | QQYHRLPLW, the assay gave 520 µM (1 of 3 replicates).

For HSSQSVLYESRNKKSVA | WASTRYS | QQYHRLPLS, the assay gave 25 nM (3 of 3 replicates). With KSSQSVLYESRNKNSHH | WASTRKS | QQYHRLPLS the result was 300 µM (1 of 3 replicates). The variant KSSQHVLYESRNKNSQA | WASTRVS | QQYHRLPLS gave nd (0 of 3 replicates). For KSSQSVLYESRNKNSVP | WASTRCS | WQYHRLPLS, the assay gave 26 µM (3 of 3 replicates). With KSSQSVLYESRRKNSVA | WASFRIS | QQYHRLPLS the result was nd (0 of 3 replicates). For KSSQSVLSESRNKNSVA | WASTRTS | QQYHRLPLS, the assay gave 41 nM (3 of 3 replicates). For KFSQSVLYESRNKNSVA | WASTRPS | QQYNRLPLS, the assay gave 20 nM (3 of 3 replicates). The variant KSSQSVLYESRNKNSVA | WSSTRVF | QQYHRLPLS gave 540 nM (3 of 3 replicates). The variant KSSSSVLYESRNKRSVA | WASTRMS | QQYHRLPLS gave 6.1 nM (3 of 3 replicates).

The variant KSSQSVLYEKENKNSVA | WASTRSS | QQYHRLPLS gave 2.2 nM (3 of 3 replicates). With KSSQSVLYESRNKNSVA | WASTRSS | QQYHRLPLS the result was 22 nM (3 of 3 replicates). For KSSQMVLYESRNKNSVA | WASTRCS | YQYHRLPLS, the assay gave 270 µM (2 of 3 replicates). With KSSQSVLYESRNKNSVA | WASKCNS | QQYHRLPLS the result was nd (0 of 3 replicates). With KSSQSVLYESCNKNSVA | WASTRFS | QAYHRLPLS the result was 1.0 µM (3 of 3 replicates). The variant KSSQSVLYESFNKNSVA | WASTRDS | QQPHRLPLS showed nd (0 of 3 replicates). The variant KSSQSVLYESRNKDSVA | WASTRPS | QNYHRLPLS showed nd (0 of 3 replicates). With KSSQSVLYESRNKNFVA | WASTRDS | QQYHRLPLS the result was 4.8 µM (1 of 3 replicates). With TSSQSVLYRSRNKNSVA | WASTRYS | QQYHRLPLS the result was 5.9 µM (3 of 3 replicates).

The variant KSSQSILYESRNKNSVA | WASTRFS | QMYHRLPLS gave 2.4 µM (3 of 3 replicates). With KSSQSVLYESRNKNSVA | WASTRMS | QQYHFLPLS the result was nd (0 of 3 replicates). The variant DSSQSVSYESRNKNSVA | WASTRNS | QQYHRLPLS showed nd (0 of 3 replicates). With KSSQSVLYESRNKNSVA | WASTRGN | QQYHRLMLS the result was 84 nM (3 of 3 replicates). With KSSVSVLYESRNKNSVA | WASTRLS | QQYHRLPLS the result was 580 nM (3 of 3 replicates). For KSSQSVLYESRNKNSVA | WASTRYS | QQYHKLPLS, the assay gave nd (0 of 3 replicates). With KSSQSVHYESRNKNSVA | WRSTRHS | QQYHRLPLS the result was nd (0 of 3 replicates).

The closing 3 entries, repeated:

| CDR-L1 | CDR-L2 | CDR-L3 | Kd (apparent) | detected |
|---|---|---|---|---|
| KSSVSVLYESRNKNSVA | WASTRLS | QQYHRLPLS | 580 nM | 3 of 3 |
| KSSQSVLYESRNKNSVA | WASTRYS | QQYHKLPLS | nd | 0 of 3 |
| KSSQSVHYESRNKNSVA | WRSTRHS | QQYHRLPLS | nd | 0 of 3 |

In this assay the parent's reference entry averaged 4.4 nM; its copy inside this library read 48 nM. Background: pairings of library AAYL50 with three empty control strains gave a value in 18% of cases (median 15 µM, 5th percentile 970 nM). Values in that range, when seen in few replicates, are hard to tell from nonspecific mating.

Data: MIT Lincoln Laboratory AlphaSeq set, Engelhart et al. 2022, doi:10.1038/s41597-022-01779-4, as distributed in FLAb.